Bioassay records as filed in PubChem.
ARNT TACC3 PPI: disruptors of ARNT/TACC3 protein interaction, primary screen, biochemical, AlphaScreen, single concentration; actives 0.66% (n = 390,000); AlphaScreen His-ARNT PAS-B/GST-TACC3 binding, luminescence; TACC3 fragment carries E629A point mutation; inhibition, % at 9.99 µM; Transforming acidic coiled-coil-containing protein 3 (Homo sapiens), Q9Y6A5;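 active = mean inhibition of replicates at least 50% and at least half of replicates each reaching 50%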
PDI inh: inhibitors of human PDI, primary screen, biochemical, turbidity, single point, plate reader; Protein disulfide-isomerase (Homo sapiens), P07237; PDI insulin aggregation turbidity, A650, 90 min; inhibition, % at 10 µM; actives 0.052% (n = 350,000); AID 588391, 2011;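 active = mean inhibition across replicates of 30% or more, whatever share of single replicates reach that level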
ERp5 block: inhibitors of ERp5-driven insulin aggregation, primary screen, biochemical, turbidity, absorbance 650 nm, single point; inhibition, % at 9.99 µM; 90 min; Protein disulfide-isomerase A6 (Homo sapiens), Q15084; actives 0.05% (n = 350,000);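 active = mean replicate inhibition above about 25%, with every replicate also reaching it, limit read from the data, passing the limit was not always enough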
FGF22 binding: binders of human FGF22 protein, primary screen, FGF22 synaptogenesis inhibitor project, biophysical, thermal shift, single point. actives 1.5% (n = 340,000). Fibroblast growth factor 22 (Homo sapiens), Q9HCT0. activity (Tm shift, normalised), % at 9.99 µM. recombinant FGF22 thermal shift, SYPRO orange fluorescence; percent of sucrose octasulfate shift, DMSO zero;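 active = mean Tm shift, scaled 0 neutral to 100 positive control, at about 1.3% or above, every replicate too, limit read from the data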
PglD DTNB: C. jejuni PglD acetyltransferase inhibitors, primary screen, biochemical, DTNB colorimetric, single point; UDP-N-acetylbacillosamine N-acetyltransferase PglD (Campylobacter jejuni); purified PglD enzyme, DTNB colorimetric CoA detection; inhibition, % at 12.5 µM; actives 0.098% (n = 360,000); in the data active = inhibition above about 16%, passing the limit was not always enough
UUG fidelity: alters start codon recognition fidelity in yeast. S. cerevisiae UUG-firefly luciferase reporter, luminescence/redox ratio. activity score, % at 18.7 µM. 0.13% of 350,000 active. AID 602363;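 active = replicate mean at a twofold rise or more, about +100% in these data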;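 also: firefly luciferase made from a UUG start codon reports start codon fidelity; reporter light over untreated wells divided by growth signal over untreated wells; some hits fall short of that in this replicate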
Hits are given with their value; - = inactive; . = no result. Compounds with a hit are over-represented: about 1.9% of the library has one in this group of screens.

SMILES | ARNT TACC3 PPI | PDI inh | ERp5 block | FGF22 binding | PglD DTNB | UUG fidelity
C=CCNC(=S)NC(CC(=O)OC)c1ccc2c(c1)OCO2 (centres undefined) | - | - | - | 42.9 | . | .
C[C@H](CO)N1C[C@H](C)[C@@H](CN(C)C(=O)c2ccccn2)Oc2cc(C#Cc3ccc(F)cc3)ccc2S1(=O)=O | - | . | - | - | - | -
C[C@H](CO)N1C[C@H](C)[C@@H](CN(C)C(=O)Nc2ccc(F)cc2)Oc2ccc(NS(=O)(=O)c3cn(C)cn3)cc2CC1=O | - | . | - | - | - | -
Cc1cnc(NC2=NCCC2)s1 | - | 38.3 | - | - | . | .
C[C@@H]1O[C@@H](O[C@H]2[C@H](O)[C@@H](O)[C@H](Oc3c(-c4ccc(O)cc4)oc4cc(O)cc(O)c4c3=O)O[C@@H]2CO)[C@H](O)[C@H](O)[C@H]1O | - | 54.9 | - | - | - | -
CC1OC(Oc2c(-c3cc(O)c(O)c(O)c3)oc3cc(O)cc(O)c3c2=O)C(O)C(O)C1O (centres undefined) | - | . | - | - | - | -
C[C@@H]1O[C@@H](OC[C@@H]2O[C@H](Oc3c(-c4ccc(O)cc4)oc4cc(O)cc(O)c4c3=O)[C@@H](O)[C@H](O)[C@H]2O)[C@H](O)[C@H](O)[C@H]1O | - | 65.3 | - | - | - | -
C[C@@H]1CN([C@H](C)CO)C(=O)c2cc(NC(=O)CCCCCC(=O)Nc3ccccc3N)ccc2O[C@@H]1CN(C)S(=O)(=O)c1ccc(F)cc1 | . | . | - | - | . | .
CCC(=O)N1[C@@H]2c3cccc(=O)n3C[C@@H]2[C@@H](CO)[C@@H]1C(=O)N[C@H](C)c1ccccc1 | . | . | - | . | . | .
Cc1c(NC(=S)N/N=C/C=C/c2ccc([N+](=O)[O-])cc2)c(=O)n(-c2ccccc2)n1C | - | - | - | - | . | .
Cc1c(Nc2ccc(C=O)cc2)c(=O)n(-c2ccccc2)n1C | - | - | - | 42.9 | . | .
Cc1c(NC(=S)N/N=C/c2ccc([N+](=O)[O-])cc2O)c(=O)n(-c2ccccc2)n1C | 61.3 | - | - | - | . | .
Cc1c(NC(=S)N/N=C\c2ccccc2O)c(=O)n(-c2ccccc2)n1C | 66.4 | - | - | - | . | .
COc1ccc(NC(=O)Nc2ccc3c(c2)C(=O)N([C@@H](C)CO)C[C@@H](C)[C@@H](CN(C)C(=O)c2ccccc2)OCCCC[C@@H](C)O3)cc1 | - | . | - | - | - | -
C[C@H]1CCCCO[C@H](CN(C)C(=O)Nc2ccc(F)cc2)[C@@H](C)CN([C@@H](C)CO)C(=O)c2cc(NS(=O)(=O)c3ccc(F)cc3)ccc2O1 | - | . | . | - | - | -
COc1ccc(C2C(CN3CCOCC3)C(=O)N2c2ccccc2)cc1 (centres undefined) | - | - | - | - | . | .
COc1ccc(N2C(=O)C(CN3CCN(C)CC3)C2c2ccccc2)cc1 (centres undefined) | - | - | - | 44.0 | . | .
COCC(=O)Nc1ccc2c(c1)C(=O)N(C)C[C@@H](OC)[C@@H](C)CN(C(=O)C1CCCC1)[C@@H](C)CO2 | - | . | - | - | - | -
O=c1c2cc(-c3ccccc3)sc2nc2n1CCC2 | . | . | - | 44.1 | . | .
COc1ccc(NC(=O)N(C)C[C@H]2OCCCC[C@H](C)Oc3ccc(NS(=O)(=O)c4ccc(OC)cc4)cc3C(=O)N([C@H](C)CO)C[C@@H]2C)cc1 | - | . | . | - | - | -
CO[C@H]1CN(C)C(=O)c2ccc(NC(C)=O)cc2OC[C@@H](C)N(Cc2ccccn2)C[C@H]1C | - | . | - | - | - | -
O=C1CC(c2ccccc2)CC(O)=C1C=Nc1ccccc1 (centres undefined) | - | - | - | 43.8 | . | .
O=Cc1ccc2cccnc2n1 | - | - | - | - | . | .
c1cnc2c(c1)ccc1cccnc12 | 64.7 | - | - | - | - | -
O=c1cc[nH]c2c1ccc1cccnc12 | 60.7 | - | - | - | - | -
SMILES | ARNT TACC3 PPI | PDI inh | ERp5 block | FGF22 binding | PglD DTNB | UUG fidelity
O=Cc1ccc2ccc3cccnc3c2n1 | 66.9 | - | - | - | - | -
COc1ccc(-c2[nH]ncc2CN(C)Cc2cccnc2)c(OC)c1 | - | - | - | 43.2 | - | -
COc1cc(CC(=O)Nc2ccccc2N2CCOCC2)cc(OC)c1OC | - | - | - | 42.9 | . | .
COc1cccc(CN(C)CC(=O)Nc2ccccc2N2CCOCC2)c1OC | - | - | - | - | - | -
O=C(CCCc1ccccn1)c1ccc(-c2ccccc2)cc1 | - | - | - | 44.3 | - | -
CO[C@@H]1CN(C)C(=O)c2cc(NC(C)=O)ccc2OC[C@@H](C)N(Cc2cc(F)ccc2F)C[C@@H]1C | - | . | - | - | - | -
CCNC(=O)C[C@@H]1CC[C@@H]2[C@H](COC[C@H](O)CN2Cc2ccccc2F)O1 | - | . | - | - | - | -
O=C(C[C@H]1C[C@@H]2c3cc(NC(=O)C4CCC4)ccc3O[C@@H]2[C@@H](CO)O1)NCc1cccc(F)c1 | - | . | - | - | - | .
N#CCC(=O)Nc1ccc(C(F)(F)F)cc1N1CCOCC1 | - | - | - | 43.5 | . | .
COc1cccc(C#Cc2cnc3c(c2)C(=O)N([C@@H](C)CO)C[C@H](C)[C@@H](CN(C)C)O3)c1 | . | . | - | - | - | -
CCN(CC)CCN(CC(=O)N(C1CCCCC1)C1CCCCC1)C(=O)c1cccnc1 | - | - | - | 43.5 | . | .
C[C@H](O)C#Cc1ccc2c(c1)O[C@@H](CN(C)C(=O)C1CCCCC1)[C@@H](C)CN([C@@H](C)CO)S2(=O)=O | - | . | - | - | - | -
C[C@@H]1CCCCO[C@H](CN(C)S(=O)(=O)c2cccs2)[C@H](C)CN([C@H](C)CO)C(=O)c2cc(NC(=O)Nc3ccc(F)cc3)ccc2O1 | - | . | - | - | - | -
CCCNC(=O)c1onc(CSc2ccc(F)c(F)c2)c1C(=O)NCCC | . | . | - | 36.4 | . | .
CCc1ccc(NC(=O)CSc2nc3[nH]ncc3c(=O)[nH]2)cc1 | - | - | - | 43.2 | - | -
O=C(O)C1C(c2ccccc2)C(C(=O)Oc2ccc(O)cc2)C1c1ccccc1 (centres undefined) | - | 46.0 | . | . | - | -
CN1CCN(C(=O)C[C@H]2CC[C@H](NC(=O)c3ccc4c(c3)OCO4)[C@@H](CO)O2)CC1 | - | . | - | - | - | .
Nc1ncc(-n2cncn2)c(-c2ccccc2)n1 | - | - | - | 43.3 | . | .
O=Cc1ccccc1-n1cncn1 | - | - | - | - | . | -
Cc1cc(=O)oc2cc(OCC(=O)Nc3ccc(CN4CCOCC4)cc3)c(Cl)cc12 | - | - | - | - | - | -
